Measurements from article PMC7616463, “Peptidic boronic acid Plasmodium falciparum SUB1 inhibitors with improved selectivity over human proteasome” (Journal of medicinal chemistry, 2024).

Test system: human 20S proteasome (H20S), chymotrypsin-like β5 activity
Assay: Human 20S proteasome kinetic assay (chymotrypsin-like β5 activity)
Type: biochemical
Conditions: ratio of IC50 H20S to IC50 PfSUB1
Protocol: The fluorescent Proteasome substrate LLVY-R110 (ex: 490 nm, Em:525 nm) (#MAK172, Sigma-Aldrich) was used to measure the chymotrypsin-like activity (β5) of the human 20S proteasome and was prepared according to the activity assay kit instructions. Cleavage of this peptide generated intense green fluorescence due to the R110 group and was monitored at 520-530 nm with excitation at 480-500 nm. The purified human 20S proteasome (BML-PW8720-0050, EnzoSciences), stored at 1mg/ml in 20 mM Tris-HCl pH 7.2, 1mM EDTA, 1mM DTT 1mM NaN3, 50% glycerol was diluted in TRIS-buffered saline (TBS, pH 7.4) to an intermediate concentration of 0.44 μM. […] The reactions were performed in white 96-well fluorescent microtiter-plate format (Nunc). The Substrate solution was added first (100 μl), followed by 1 μl of the inhibitor (50 μM intermediate stock) and 1 μl of the H20S proteasome at 0.44 μM. The IC50s were determined for a selection of potent PfSUB1 inhibitors. After sequential dilution of the inhibitors in 100% DMSO, 1 μl of each dilution was used in a 100 μl reaction containing the fluorescent substrate. The reaction was initiated by the addition of 1 μl of the 20S proteasome intermediate stock solution. The fluorescence increase was monitored using a SpectraMax M5e plate reader and SoftMax Pro-6.3 software Measure activity on a plate reader (ex: 490 nm, Em: 525 nm) with the photomultiplier tube (PMT) set to medium with readings every 3 min for one hour. All measurements were done in duplicate. The progress curves were plotted within GraphPad Prism 9.5.0.

SMILES	S (H20S vs PfSUB1 inhibition)
CC[C@H](C)[C@H](NC(=O)[C@@H](NC(=O)c1ccc2ccccc2n1)C1CCCC1)C(=O)NCC(=O)N[C@@H](C)B(O)O [3a, ((3S,6S,12R)-6-((S)-sec-butyl)-3-cyclopentyl-1,4,7,10-tetraoxo-1-(quinolin-2-yl)-2,5,8,11-tetraazatridecan-12-yl)boronic acid]	0.6
CC[C@H](C)[C@H](NC(=O)[C@@H](NC(=O)c1cccc(-c2ccccc2)n1)C1CCCC1)C(=O)NCC(=O)N[C@@H](C)B(O)O [3b, ((3S,6S,12R)-6-((S)-sec-butyl)-3-cyclopentyl-1,4,7,10-tetraoxo-1-(6-phenylpyridin-2-yl)-2,5,8,11-tetraazatridecan-12-yl)boronic acid]	0.75
CC[C@H](C)[C@H](NC(=O)[C@@H](NC(=O)c1ccc2ccccc2n1)C1CCCC1)C(=O)NCC(=O)N[C@H]1CCC(=O)OB1O [4a, N-((S)-1-cyclopentyl-2-(((2S,3S)-1-((2-(((R)-2-hydroxy-6-oxo-1,2-oxaborinan-3-yl)amino)-2-oxoethyl)amino)-3-methyl-1-oxopentan-2-yl)amino)-2-oxoethyl) quinoline-2-carboxamide]	11.3
CC[C@H](C)[C@H](NC(=O)[C@@H](NC(=O)c1cccc(-c2ccccc2)n1)C1CCCC1)C(=O)NCC(=O)N[C@H]1CCC(=O)OB1O [4b, N-((S)-1-cyclopentyl-2-(((2S,3S)-1-((2-(((R)-2-hydroxy-6-oxo-1,2-oxaborinan-3-yl)amino)-2-oxoethyl)amino)-3-methyl-1-oxopentan-2-yl)amino)-2-oxoethyl)-6-phenylpicolinamide]	12.3
CC[C@H](C)[C@H](NC(=O)[C@@H](NC(=O)c1cc(C)cc(C)c1)C1CCCC1)C(=O)NCC(=O)N[C@H]1CCC(=O)OB1O [4c, N-((S)-1-cyclopentyl-2-(((2S,3S)-1-((2-(((R)-2-hydroxy-6-oxo-1,2-oxaborinan-3-yl)amino)-2-oxoethyl)amino)-3-methyl-1-oxopentan-2-yl)amino)-2-oxoethyl)-3,5-dimethylbenzamide]	65.4
